The assay has as its system dsDNA ([…]). Briefly: DNA binding by fluorescence intercalator displacement. The settings on record: C50 normalized compared to BF2.

`CC[C@H](C)[C@H](NC(=O)[C@H](CCCNC(=N)N)NC(=O)[C@@H](NC(=O)[C@H](CCCCN)NC(=O)[C@H](CCCCN)NC(=O)[C@H](CC(N)=O)NC(=O)[C@H](CC(=O)O)NC(=O)[C@H](CCCNC(=N)N)NC(=O)[C@H](C)N)[C@@H](C)O)C(=O)N[C@@H](Cc1c[nH]c2ccccc12)C(=O)N1CCC[C@H]1C(=O)N[C@@H](CCCNC(=N)N)C(=O)N[C@@H](Cc1c[nH]cn1)C(=O)N[C@@H](CC(C)C)C(=O)N[C@@H](CCC(N)=O)C(=O)N[C@@H](CC(C)C)C(=O)N[C@@H](C)C(=O)N[C@H](C(=O)N[C@@H](CCCNC(=N)N)C(=O)N[C@@H](CC(N)=O)C(=O)O)C(C)C` [DesHDAP1]: the “Relative C50” value came out at 1.28.

Source of the values: article PMC3273674 (Biochimica et Biophysica Acta, 2011).
